The target of the assay is Ubiquitin carboxyl-terminal hydrolase isozyme L5 (Homo sapiens, UniProt Q9Y5K5). In words: Inhibition of N-terminal His6-tagged recombinant human UCHL5 expressed in Escherichia coli BL21 (DE3) codon cells assessed as reduction in cleavage of Ubiquitin-Rhodamine110-glycine to Ubiquitin and Rhodamine110-glycine using Ub-Rho 110 as substrate at 200 uM incubated for 30 mins by fluorescence based assay relative to control.

Chains of the proteins cited; added tags and fusions are not shown.
UniProt Q9Y5K5, whole entry: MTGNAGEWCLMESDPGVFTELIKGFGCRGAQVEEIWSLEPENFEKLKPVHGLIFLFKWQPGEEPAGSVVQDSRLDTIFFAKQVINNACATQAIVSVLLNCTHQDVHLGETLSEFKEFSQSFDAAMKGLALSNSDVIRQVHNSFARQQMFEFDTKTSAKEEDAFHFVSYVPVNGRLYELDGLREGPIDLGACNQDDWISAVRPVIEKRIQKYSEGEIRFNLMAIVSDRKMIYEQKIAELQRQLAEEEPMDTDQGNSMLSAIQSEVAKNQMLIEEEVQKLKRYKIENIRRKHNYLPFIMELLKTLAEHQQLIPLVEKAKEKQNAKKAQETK

Consider `CC(C(=O)O)c1ccc(C(=O)c2ccccc2)s1` (stereo unspecified) [TIAPROFENIC ACID], for which the inhibition (usually the relative decrease from the control value, in per cent) amounted to 15%.

The values above are taken from ChEMBL document CHEMBL4680319, “Synthesis and evaluation of tiaprofenic acid-derived UCHL5 deubiquitinase inhibitors” (Bioorg Med Chem, 2021).
